Results as given in PubChem BioAssay AID624466 (The Scripps Research Institute Molecular Screening Center, 2012).
The list shows a part of the results, in another mix than the full data. Activity calls are given as the source filed them.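 The calls were made as follows: active = inhibition above a per-plate cutoff, the mean inhibition of test compounds on that plate plus 3 SD (cut at about 49% in these data); inactive = the rest.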

Sequences of proteins named here, by UniProt entry; tags and fusion partners are left off. A change or cut given only in a name is not applied to a line headed by its entry.
UniProt Q96RJ0: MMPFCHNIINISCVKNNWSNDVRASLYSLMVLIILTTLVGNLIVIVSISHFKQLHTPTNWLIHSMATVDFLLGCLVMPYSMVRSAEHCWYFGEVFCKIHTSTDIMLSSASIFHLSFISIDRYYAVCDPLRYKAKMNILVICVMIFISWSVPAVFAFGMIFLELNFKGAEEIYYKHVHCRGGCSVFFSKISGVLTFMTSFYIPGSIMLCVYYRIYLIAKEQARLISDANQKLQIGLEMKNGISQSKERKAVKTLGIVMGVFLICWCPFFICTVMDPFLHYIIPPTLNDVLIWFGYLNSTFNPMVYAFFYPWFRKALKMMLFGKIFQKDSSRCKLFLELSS

Target: Trace amine-associated receptor 1 (Homo sapiens) (UniProt Q96RJ0)
Test: human TAAR1 antagonists, primary screen, Fluo-8 calcium fluorescence, CHO RD-HGA16 cells (AID 624466);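 also: 0% = DMSO plus EC80 beta-PEA response and 100% = DMSO alone without agonist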
Conditions: CHO RD-HGA16 TAAR1, Fluo-8 calcium fluorescence, antagonist; at 3 µM; stronger effect = higher value

Row | Structure (SMILES) | inhibition
1 | CC1CCC(C(C)C)C(OP(=O)(Nc2ccccn2)c2ccccc2)C1 (stereo not given) | inactive: 10.8%
2 | Cc1ccc(C(=O)OC2CN3CCC2CC3)cc1 (stereo not given) | inactive: 10.4%
3 | Cc1nn(-c2ccccc2)c2c1P(=O)(N1CCOCC1)N(C)C(c1ccccc1)=N2 (stereo not given) | inactive: 2.01%
4 | CC1(CBr)Cn2c(nc3ccccc3c2=O)S1 (stereo not given) | inactive: -3.5%
5 | CN(C(=O)Cc1ccc(Cl)c(Cl)c1)C1CCCC[C@@H]1N1CCCC1 (stereo not given in full) | inactive: -16.2%
6 | CC(C)/C=N\N=C(\N)N[N+](=O)[O-] | inactive: 17.4%
7 | CN(C(=O)Cc1ccc(Cl)c(Cl)c1)[C@@H]1CCCC[C@H]1N1CCCC1 | inactive: -12.8%
8 | COc1ccccc1CNC(=O)COC(=O)C(O)(c1ccccc1)c1ccccc1 | inactive: -5.79%
9 | CC(C)(C)C(=O)NC(Sc1ncccn1)C(Cl)(Cl)Cl (stereo not given) | inactive: -34.1%
10 | O=P1(N(CCCl)CCCl)NCCC(C(F)(F)F)O1 (stereo not given) | inactive: -4.64%
11 | Clc1n[nH]nc1-c1nn[nH][15n]1 | inactive: 7.72%
12 | CCOP(=O)(Nc1ccc(C)cn1)OCC | inactive: 7.6%
13 | CN(CCCl)Cc1cc(Cl)c(NC2=NCCN2)c(Cl)c1 | inactive: -7.02%
14 | CCOP(=O)(NC(=NC(C)c1ccccc1)NC(C)c1ccccc1)OCC (stereo not given) | inactive: -0.73%
15 | O=P1(Nc2ccccn2)COc2ccccc2OC1 | inactive: -13.4%
16 | CCC1=CC2Cc3nc4ccc(Cl)cc4c(N)c3C(C1)C2 (stereo not given) | inactive: 6.12%
17 | CCOP(=O)(Nc1cccc2ccccc12)OCC | inactive: -0.75%
18 | COc1cc(C2NCCC3(OCCO3)C2(C)C)cc(OC)c1OC (stereo not given) | inactive: -7.17%
19 | CCCOP(=S)(Nc1nc(N)cc(=O)[nH]1)OCCC | inactive: -12.2%
20 | Nc1cccc2c([As](=O)(O)O)cccc12 | inactive: -12.8%
21 | Cc1ccc(NCCc2c([N+](=O)[O-])cc([N+](=O)[O-])cc2[N+](=O)[O-])cc1 | inactive: 14.5%
22 | Cc1cccc(OCC(=O)OC2CN3CCC2CC3)c1 (stereo not given) | inactive: -11%
23 | O=[As](O)(c1cccc(O)c1)c1cccc(O)c1 | inactive: -19.1%
24 | CS(=O)(=O)c1ccc(Cl)c(NC(=O)COC(=O)C(O)(c2ccccc2)c2ccccc2)c1 | inactive: 44.9%
25 | O=[As](O)(O)c1cccnc1 | inactive: -5.31%

Row | Structure (SMILES) | inhibition
26 | COc1cc(C(=O)NCC2(N3CCOCC3)CCCCC2)cc(Cl)c1OC(C)C | inactive: -1.29%
27 | O=C(OC1CN2CCC1CC2)c1ccc(Cl)cc1 (stereo not given) | inactive: -20.7%
28 | CN(C(=O)Cc1ccc(Cl)c(Cl)c1)[C@H]1CC[C@@]2(CCCO2)C[C@@H]1N1CCCC1 | inactive: -11.2%
29 | O=[N+]([O-])c1ccc2c(c1)nnn2O | inactive: 7.85%
30 | CN(C)C(=O)c1cc([N+](=O)[O-])cc2c1-c1c(cc([N+](=O)[O-])cc1[N+](=O)[O-])C2=O | inactive: 25.8%
31 | CN(C(=O)Cc1ccccc1)[C@@H]1CC[C@]2(CCCO2)C[C@H]1N1CCCC1 | inactive: -15.1%
32 | CCOP1(=S)c2c(C)nn(CCC#N)c2N=C(c2ccc(F)cc2)N1C (stereo not given) | inactive: 5.67%
33 | N#CCCN(C(=O)COC(=O)C(O)(c1ccccc1)c1ccccc1)c1ccc(F)cc1 | inactive: 8.49%
34 | NC(=O)Nc1ccc([As](=O)(O)O)cc1 | inactive: 1.92%
35 | Nc1ccccc1[As](=O)(O)c1ccccc1 | inactive: -22.5%
36 | O=C(O)COc1ccc([As](=O)(O)O)cc1[N+](=O)[O-] | inactive: -13.7%
37 | O=P(Nc1nccs1)(Oc1ccccc1)Oc1ccccc1 | inactive: -6.75%
38 | CCOP1(=S)c2c(C)nn(CCC#N)c2N=C(c2ccccc2F)N1C (stereo not given) | inactive: 18.4%
39 | O=c1c2cc([N+](=O)[O-])ccc2[nH]c2c([N+](=O)[O-])cc([N+](=O)[O-])cc12 | inactive: 2.71%
40 | CN(C)C(=O)Oc1noc2ccccc12 | inactive: -12.9%
41 | CC(NC(=O)COC(=O)C(O)(c1ccccc1)c1ccccc1)c1ccccc1 (stereo not given) | inactive: 17.6%
42 | Cc1ccccc1OP(=O)(Nc1ccccn1)Oc1ccccc1C | active: 70.3%
43 | Cc1ccc(OP(=O)(Nc2ccccn2)Oc2ccc(C)cc2)cc1 | inactive: 27.5%
44 | CC(=O)NC(SC(=S)N(CC(C)C)CC(C)C)C(Cl)(Cl)Cl (stereo not given) | inactive: -19.4%
45 | COC(=O)c1cc2c(s1)N=C(c1ccccc1)N(C)P2(=O)N1CCOCC1 (stereo not given) | inactive: -2.29%
46 | CCC(=O)N1C2C3N(C(=O)CC)C1C1N(C(=O)CC)C(C(N1C(=O)CC)N3C(=O)CC)N2C(=O)CC | inactive: 10.6%
47 | O=C(OC1CN2CCC1CC2)c1ccccc1 (stereo not given) | inactive: -6.97%
48 | O=P1(N(CCCl)CCCl)OCCC2CCCCN21 (stereo not given) | inactive: -17.6%
49 | CCNC(=S)/N=C(\N)N[N+](=O)[O-] | inactive: 26%
50 | O=C(NC1CCS(=O)(=O)C1)NP(=S)(Oc1ccccc1)Oc1ccccc1 (stereo not given) | inactive: -11.3%
